Compound activity as filed in PubChem BioAssay.
Cneo AK release – Cryptococcus neoformans lysis via adenylate kinase release; C. neoformans lysis, adenylate kinase release luminescence, 4 h; normalised: neutral wells 0, clomiphene wells 100; lysis activity, % at 15 µM; hit rate 0.2% among 360,000;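 active means mean lysis activity across replicates of at least 80%, whatever share of replicates individually reach that level; inactive means mean lysis activity below 80%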
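Signal: Adenylate kinase release luminescence | Assay system: Log-phase Cryptococcus neoformans yeast cells | Input: Cells at 5 × 10^6 per mL | Buffer or medium: Fresh YPD growth medium | Compound: Single dose | Schedule: Static 4 h at 37 °C with compound, 1 h detection | Controls: Clomiphene | Read-out: Luminescence rise reflecting yeast cell lysis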
Rtt109 HAT inh – blocks Candida albicans Rtt109/Vps75 acetyltransferase activity; Q5AAJ8; purified Rtt109/Vps75, ThioGlo CoA-SH fluorescence, 4 h; inhibition, % at 34.9 µM; hit rate 0.16% among 330,000;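 active means inhibition of at least 50% in every replicate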
Statin myotox sup – suppression of simvastatin myotoxicity; C2C12 myotubes + simvastatin, ATP luminescence, 48 h; scaled: DMSO 0, geranylgeraniol control 100; hit rate 0.78% among 330,000; rescue of ATP level, % at 7.49 µM; AID 602340;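 active means mean ATP rescue above about 67%, or every replicate alone reaching that limit, limit read from the data, passing the limit was not always enough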;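 further: myotubes were challenged with 10 µM simvastatin during compound exposure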
UUG fidelity – modulators of yeast start codon fidelity, primary screen, whole organism, S. cerevisiae, single point, plate reader | AID 602363, 2012 | S. cerevisiae UUG-firefly luciferase reporter, luminescence/redox ratio | activity score, % at 18.7 µM | hit rate 0.13% among 350,000;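 active = replicate mean at a twofold rise or more, about +100% in these data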;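 also: firefly luciferase made from a UUG start codon reports start codon fidelity; reporter light over untreated wells divided by growth signal over untreated wells; some hits fall short of that in this replicate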
CDK5 inh – CDK5/p35 (human) kinase inhibition | inhibition, % at 10 µM | hit rate 0.01% among 330,000 | Q00535+Q15078 | Recombinant CDK5/p35, ADP-Glo luminescence, 60 min;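 active means highest replicate inhibition of at least 50% and at least 75% of replicates reaching 50%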;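 further: plate controls were DMSO neutral control for no effect and GW8510 at 10 µM for full effect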
* marks the source's active call; other numbers are inactive results. This is a sample that favours compounds with a hit; in the whole collection about 1% have one here.

Start of the listing, in advance, 2 compounds:
How did COc1ccc2c(c1)SCCC2=O do in these assays?
Rtt109 HAT inh: -10; Statin myotox sup: 18; CDK5 inh: 1

How did COc1cc2c(cc1OC)C(=O)CCS2 do in these assays?
Cneo AK release: -2; Rtt109 HAT inh: -1; Statin myotox sup: 125*; UUG fidelity: -12; CDK5 inh: 1

This part in full, from the first entry:
How did COc1ccc2c(c1)SCCC2=O do in these assays?
Rtt109 HAT inh: -10; Statin myotox sup: 18; CDK5 inh: 1

How did COc1cc2c(cc1OC)C(=O)CCS2 do in these assays?
Cneo AK release: -2; Rtt109 HAT inh: -1; Statin myotox sup: 125*; UUG fidelity: -12; CDK5 inh: 1

What do the screens show for `CCOC(=O)C1=C(C)N=C2SC(C)C(=O)N2C1c1ccc(C(=O)OC)cc1` (configuration not stated)?
Cneo AK release: 0; Rtt109 HAT inh: 3; Statin myotox sup: 91*; UUG fidelity: -5; CDK5 inh: -1

Results for NC(=S)N/N=C/c1ccc(-c2cc(Cl)ccc2Cl)o1 ?
Cneo AK release: 111*; Rtt109 HAT inh: -1; Statin myotox sup: -25; UUG fidelity: -20; CDK5 inh: 5

Results for CCC(c1nc2ccccc2c(=O)n1CCN1CCOCC1)N1C(=O)c2ccccc2C1=O (configuration not stated) ?
Cneo AK release: 2; Rtt109 HAT inh: 8; Statin myotox sup: 141*; UUG fidelity: -2; CDK5 inh: 1

What do the screens show for `COC(=O)C[C@H]1CC[C@@H]2[C@H](COc3ccc(NC(=O)Nc4cc(C)cc(C)c4)cc3C(=O)N2C)O1`?
Cneo AK release: 7; Statin myotox sup: 11

What do the screens show for `CCCCCN=C(N)N/N=C/c1c[nH]c2ccc(OC)cc12`?
Cneo AK release: 2; Rtt109 HAT inh: 78*; Statin myotox sup: -120; UUG fidelity: -2; CDK5 inh: 2

What do the screens show for `CCCOc1ccc(C(=O)N/N=C/c2c[nH]c3ccc(Br)cc23)cc1`?
Cneo AK release: 5; Rtt109 HAT inh: 4; Statin myotox sup: -8; UUG fidelity: -9; CDK5 inh: 1

What do the screens show for `CC(=O)N(C)C[C@H]1Oc2cc(C#Cc3ccc(F)cc3)ccc2S(=O)(=O)N([C@H](C)CO)C[C@H]1C`?
Cneo AK release: -4; Statin myotox sup: -17

How did CCCC#Cc1ccc2c(c1)O[C@@H](CN(C)C)[C@@H](C)CN([C@@H](C)CO)S2(=O)=O do in these assays?
Cneo AK release: 101*; Statin myotox sup: 26; UUG fidelity: 1

What do the screens show for `C[C@@H]1CN([C@H](C)CO)S(=O)(=O)c2ccc(C#Cc3ccc(F)cc3)cc2O[C@H]1CN(C)S(=O)(=O)c1cn(C)cn1`?
Cneo AK release: -3; Statin myotox sup: 3; UUG fidelity: 0

How did CCCC#Cc1ccc2c(c1)O[C@H](CN(C)C)[C@H](C)CN([C@@H](C)CO)S2(=O)=O do in these assays?
Cneo AK release: 2; Statin myotox sup: 9; UUG fidelity: -5

How did C[C@H]1CN([C@@H](C)CO)S(=O)(=O)c2ccc(C#Cc3ccc(F)cc3)cc2O[C@@H]1CN(C)C(=O)NC1CCCC1 do in these assays?
Cneo AK release: 0; Statin myotox sup: 13; UUG fidelity: 8

Results for C[C@H]1CN([C@@H](C)CO)S(=O)(=O)c2ccc(C#Cc3ccc(F)cc3)cc2O[C@@H]1CN(C)S(=O)(=O)c1cn(C)cn1 ?
Cneo AK release: -2; Statin myotox sup: 74*; UUG fidelity: 4

How did CC(=O)N(C)C[C@H]1Oc2cc(C#Cc3ccc(F)cc3)ccc2S(=O)(=O)N([C@H](C)CO)C[C@@H]1C do in these assays?
Cneo AK release: 110*; Statin myotox sup: 1

How did C[C@@H]1CN([C@H](C)CO)S(=O)(=O)c2ccc(C#Cc3ccc(F)cc3)cc2O[C@H]1CN(C)C(=O)NC1CCCC1 do in these assays?
Cneo AK release: 82*; Statin myotox sup: -10; UUG fidelity: 29

How did C[C@H](CO)N1C[C@H](C)[C@H](CN(C)C(=O)Nc2cc(F)ccc2F)Oc2cc(C#CC3CC3)ccc2S1(=O)=O do in these assays?
Statin myotox sup: 75*

Results for COc1ccc(C#Cc2ccc3c(c2)O[C@H](CN(C)C(C)=O)[C@H](C)CN([C@H](C)CO)S3(=O)=O)cc1 ?
Cneo AK release: -1; Statin myotox sup: 15; UUG fidelity: 30

What do the screens show for `COc1ccc(C#Cc2ccc3c(c2)O[C@H](CN(C)C(=O)Nc2cccc(OC)c2)[C@H](C)CN([C@@H](C)CO)S3(=O)=O)cc1`?
Cneo AK release: 86*; Statin myotox sup: 73*; UUG fidelity: -14

Results for COc1ccc(C#Cc2ccc3c(c2)O[C@H](CN(C)C(C)=O)[C@@H](C)CN([C@@H](C)CO)S3(=O)=O)cc1 ?
Cneo AK release: 98*; Statin myotox sup: -10; UUG fidelity: -7
